Values of other authors as cited in patent publication US20070129297A1, “Treatment and prevention of asthma” (priority 2003, published 2007).

Tested on: red blood cells
Details: at a thousand times the concentrations at which other detergents are hemolytic

For “polymer of 4-(1,1,3,3-tetramethylbutyl)phenol) with formaldehyde and oxirane [Tyloxapol]”, which “hemolysis of red blood cells” value is on record?
The value was “does not hemolyze red blood cells”.
